Results from patent publication US8828401B2, “Cytotoxic peptides and antibody drug conjugates thereof” (Pfizer Inc., priority 2011, dated 2014).

Legend:
[1] = system: MDA-MB-468 (breast cancer); assay: In vitro cytotoxicity assay with anti-Notch ADCs (MTS); assay type: cell-based
Experimental: (§1) The effects of anti-Notch ADCs were assessed on 1) cell lines endogenously expressing Notch protein: HCC2429 (lung cancer), OVCAR3 (ovarian cancer) and MDA-MB-468 (breast cancer), 2) cell lines engineered to over-express Notch protein: MDA-MB-468/hNotch and U2OS/hNotch, and 3) a negative control cell line (SW900) using an MTS cellular viability indicator (Promega, Madison, Wis.). These cell lines were cultured with increasing concentrations of anti-Notch ADCs comprising humanized anti-Notch antibodies, hu28 and hu75, and rat-human chimeric anti-Notch antibodies, ch28 and ch75, conjugated to various linker-payload combinations of the present invention. As a specificity control for the anti-Notch-ADCs, non-targeted control-ADCs (huNeg8.8-ADCs or ch2H6-ADCs) were also tested on the same cell lines. After four days, viability of each culture was assessed. IC50 values were calculated by logistic non-linear regression and presented as ng Ab/mL. The drug antibody ratio (DAR) is also provided.

[2] = system: U2OS/hNotch; assay: as above; assay type: cell-based
Experimental: as §1

[3] = system: MDA-MB-468 breast xenografts; assay: MDA-MB-468 breast xenografts with anti-Notch ADCs; assay type: in vivo, female SCID Hairless Outbred (SHO) mice
Experimental: Humanized anti-Notch antibodies, hu28 and hu75, and rat-human chimeric anti-Notch antibodies, ch28 and ch75, were conjugated to various linker-payload combinations and tested in 37622A1 non-small cell lung cancer (NSCLC), HCC2429 lung cancer, MDA-MB-468 breast cancer and N87 gastric cancer xenograft models. For each model described below the first dose was given on Day 0. The tumors were measured at least once a week and their volume was calculated with the formula: tumor volume (mm^3)=0.5×(tumor width^2)(tumor length). The mean tumor volumes (±S.E.M.) for each treatment group were calculated having a maximum of 10 animals and a minimum of 6 animals to be included.
Similar in vivo experiments were performed with the MDA-MB-468 breast cancer cell line as described above. […] To generate xenografts, female SCID Hairless Outbred (SHO) mice were orthotopically implanted with 10×10^6 MDA-MB-468 cells containing 50% Matrigel (BD Biosciences) in the mammary fat pad. When the tumors reached a volume of 250 to 450 mm^3, the tumors were staged to ensure uniformity of the tumor mass among various treatment groups. The MDA-MB-468 breast model was dosed intraveneously Q4dx4 with PBS vehicle, humanized anti-Notch ADCs and control huNeg-8.8 ADCs at the doses provided in Tables 14 and 15.

B1: hu75-vc0101: humanized anti-Notch antibody hu75 conjugated to mcValCitPABC-#54 (conjugate)
heavy: EVQLVESGGGLVQPGGSLRLSCAASGYAFTDYWMTWVRQAPGKGLEWVAEISPNSGGTNFNEKFKGRFTISVDNAKNSLYLQMNSLRAEDTAVYYCARGEIRYNWFAYWGQGTLVTVSSASTKGPSVFPLAPSSKSTSGGTAALGCLVKDYFPEPVTVSWNSGALTSGVHTFPAVLQSSGLYSLSSVVTVPSSSLGTQTYICNVNHKPSNTKVDKKV[human IgG1 Fc left out]
light: DIQMTQSPSSLSASVGDRVTITCKASQNVGNNIAWYQQKPGKAPKLLIYYASNRYTGVPSRFSGSGYGTDFTLTISSLQPEDFATYYCQRLYNSPFTFGGGTKVEIKRTVAAPSVFIFPPSDEQLKSGTASVVCLLNNFYPREAKVQWKVDNALQSGNSQESVTEQDSKDSTYSLSSTLTLSKADYEKHKVYACEVTHQGLSSPVTKSFNRGEC
- IC50 (ng Ab/mL) [1]: 7001 ng Ab/mL
- IC50 (ng Ab/mL) [2]: 523 ng Ab/mL
- tumor volume (mm^3 ± SEM) ([3]; Dose 0.3 mg/kg Q4dx4 iv, DAY 0): 348 ± 21 mm^3
- tumor volume (mm^3 ± SEM) ([3]; Dose 0.3 mg/kg Q4dx4 iv, DAY 4): 439 ± 31 mm^3
- tumor volume (mm^3 ± SEM) ([3]; Dose 0.3 mg/kg Q4dx4 iv, DAY 7): 435 ± 27 mm^3
- tumor volume (mm^3 ± SEM) ([3]; Dose 0.3 mg/kg Q4dx4 iv, DAY 11): 504 ± 38 mm^3
- tumor volume (mm^3 ± SEM) ([3]; Dose 0.3 mg/kg Q4dx4 iv, DAY 14): 507 ± 30 mm^3
- tumor volume (mm^3 ± SEM) ([3]; Dose 0.3 mg/kg Q4dx4 iv, DAY 18): 587 ± 44 mm^3
- tumor volume (mm^3 ± SEM) ([3]; Dose 0.3 mg/kg Q4dx4 iv, DAY 21): 590 ± 55 mm^3
- tumor volume (mm^3 ± SEM) ([3]; Dose 0.3 mg/kg Q4dx4 iv, DAY 26): 652 ± 64 mm^3
- tumor volume (mm^3 ± SEM) ([3]; Dose 0.3 mg/kg Q4dx4 iv, DAY 29): 675 ± 63 mm^3
- tumor volume (mm^3 ± SEM) ([3]; Dose 0.3 mg/kg Q4dx4 iv, DAY 32): 738 ± 70 mm^3
- tumor volume (mm^3 ± SEM) ([3]; Dose 0.3 mg/kg Q4dx4 iv, DAY 35): 821 ± 69 mm^3
- tumor volume (mm^3 ± SEM) ([3]; Dose 0.3 mg/kg Q4dx4 iv, DAY 39): 864 ± 74 mm^3
- tumor volume (mm^3 ± SEM) ([3]; Dose 0.3 mg/kg Q4dx4 iv, DAY 42): 997 ± 84 mm^3
- tumor volume (mm^3 ± SEM) ([3]; Dose 1 mg/kg Q4dx4 iv, DAY 0): 347 ± 22 mm^3
- tumor volume (mm^3 ± SEM) ([3]; Dose 1 mg/kg Q4dx4 iv, DAY 4): 410 ± 32 mm^3
- tumor volume (mm^3 ± SEM) ([3]; Dose 1 mg/kg Q4dx4 iv, DAY 7): 383 ± 33 mm^3
- tumor volume (mm^3 ± SEM) ([3]; Dose 1 mg/kg Q4dx4 iv, DAY 11): 373 ± 33 mm^3
- tumor volume (mm^3 ± SEM) ([3]; Dose 1 mg/kg Q4dx4 iv, DAY 14): 350 ± 40 mm^3
- tumor volume (mm^3 ± SEM) ([3]; Dose 1 mg/kg Q4dx4 iv, DAY 18): 296 ± 33 mm^3
- tumor volume (mm^3 ± SEM) ([3]; Dose 1 mg/kg Q4dx4 iv, DAY 21): 260 ± 49 mm^3
- tumor volume (mm^3 ± SEM) ([3]; Dose 1 mg/kg Q4dx4 iv, DAY 26): 267 ± 59 mm^3
- tumor volume (mm^3 ± SEM) ([3]; Dose 1 mg/kg Q4dx4 iv, DAY 29): 261 ± 62 mm^3
- tumor volume (mm^3 ± SEM) ([3]; Dose 1 mg/kg Q4dx4 iv, DAY 32): 264 ± 67 mm^3
- tumor volume (mm^3 ± SEM) ([3]; Dose 1 mg/kg Q4dx4 iv, DAY 35): 326 ± 86 mm^3
- tumor volume (mm^3 ± SEM) ([3]; Dose 1 mg/kg Q4dx4 iv, DAY 39): 324 ± 81 mm^3
- tumor volume (mm^3 ± SEM) ([3]; Dose 1 mg/kg Q4dx4 iv, DAY 42): 381 ± 94 mm^3
- tumor volume (mm^3 ± SEM) ([3]; Dose 1 mg/kg Q4dx4 iv, DAY 47): 442 ± 69 mm^3
- tumor volume (mm^3 ± SEM) ([3]; Dose 1 mg/kg Q4dx4 iv, DAY 50): 484 ± 89 mm^3
- tumor volume (mm^3 ± SEM) ([3]; Dose 1 mg/kg Q4dx4 iv, DAY 53): 452 ± 78 mm^3
- tumor volume (mm^3 ± SEM) ([3]; Dose 1 mg/kg Q4dx4 iv, DAY 56): 535 ± 93 mm^3
- tumor volume (mm^3 ± SEM) ([3]; Dose 1 mg/kg Q4dx4 iv, DAY 60): 603 ± 98 mm^3
- tumor volume (mm^3 ± SEM) ([3]; Dose 3 mg/kg Q4dx4 iv, DAY 0): 347 ± 20 mm^3
- tumor volume (mm^3 ± SEM) ([3]; Dose 3 mg/kg Q4dx4 iv, DAY 4): 444 ± 28 mm^3
- tumor volume (mm^3 ± SEM) ([3]; Dose 3 mg/kg Q4dx4 iv, DAY 7): 338 ± 20 mm^3
- tumor volume (mm^3 ± SEM) ([3]; Dose 3 mg/kg Q4dx4 iv, DAY 11): 277 ± 22 mm^3
- tumor volume (mm^3 ± SEM) ([3]; Dose 3 mg/kg Q4dx4 iv, DAY 14): 181 ± 19 mm^3
- tumor volume (mm^3 ± SEM) ([3]; Dose 3 mg/kg Q4dx4 iv, DAY 18): 90 ± 12 mm^3
- tumor volume (mm^3 ± SEM) ([3]; Dose 3 mg/kg Q4dx4 iv, DAY 21): 60 ± 9 mm^3
- tumor volume (mm^3 ± SEM) ([3]; Dose 3 mg/kg Q4dx4 iv, DAY 26): 16 ± 10 mm^3
- tumor volume (mm^3 ± SEM) ([3]; Dose 3 mg/kg Q4dx4 iv, DAY 29): 8 ± 8 mm^3
- tumor volume (mm^3 ± SEM) ([3]; Dose 3 mg/kg Q4dx4 iv, DAY 32): 7 ± 7 mm^3
- tumor volume (mm^3 ± SEM) ([3]; Dose 3 mg/kg Q4dx4 iv, DAY 35): 0 ± 0 mm^3
- tumor volume (mm^3 ± SEM) ([3]; Dose 3 mg/kg Q4dx4 iv, DAY 39): 0 ± 0 mm^3
- tumor volume (mm^3 ± SEM) ([3]; Dose 3 mg/kg Q4dx4 iv, DAY 42): 0 ± 0 mm^3
- tumor volume (mm^3 ± SEM) ([3]; Dose 3 mg/kg Q4dx4 iv, DAY 47): 0 ± 0 mm^3
- tumor volume (mm^3 ± SEM) ([3]; Dose 3 mg/kg Q4dx4 iv, DAY 50): 0 ± 0 mm^3
- tumor volume (mm^3 ± SEM) ([3]; Dose 3 mg/kg Q4dx4 iv, DAY 53): 0 ± 0 mm^3
- tumor volume (mm^3 ± SEM) ([3]; Dose 3 mg/kg Q4dx4 iv, DAY 56): 0 ± 0 mm^3
- tumor volume (mm^3 ± SEM) ([3]; Dose 3 mg/kg Q4dx4 iv, DAY 60): 0 ± 0 mm^3
- tumor volume (mm^3 ± SEM) ([3]; Dose 3 mg/kg Q4dx4 iv, DAY 63): 0 ± 0 mm^3
- tumor volume (mm^3 ± SEM) ([3]; Dose 3 mg/kg Q4dx4 iv, DAY 67): 0 ± 0 mm^3
